Among the data in paper PMC4890880 (ACS infectious diseases, 2016) are IC50 values, retold here.

SMILES strings stand for the structures.

The test system of this test is P. falciparum 3D7 parasites. Nature of the test: Asexual erythrocytic-stage SYBR Green I proliferation assay, 1536-well. Particulars: Plasmodium falciparum, 3D7, read-out: P. falciparum (blood) IC50. Format: cell-based.

As for `CCC[C@@H]1C[C@@H](C(=O)N[C@@H]([C@H]2O[C@H](SC)[C@H](O)[C@@H](O)[C@H]2O)[C@H](C)Cl)N(C)C1` [Clindamycin], the IC50 is 198 nM.
